Experiments:
Type in all cases: cell-based
[1] = molecular target: T1, HDAC3 (Homo sapiens, UniProt O15379); assay: gdf11 reporter gene assay in HeLa cells; settings: 24 h, read-out: % of SAHA Response for HDAC3 at 10 μM (gdf11 reporter gene)
T1 construct: endogenous in cells; host or cells: HeLa
Protocol: (§1) HDAC subtype selectivity inhibition assay of tested compounds was carried out by several reporter gene assays experiments. Briefly, HeLa cells were seeded in 96-well plates the day before transfection to give a confluence of 50-80%. Cells were transfected with one of reporter gene plasmids containing a promoter sequences or response elements upstream of a luciferase gene construct using FuGene6 transfection reagent according to the manufacturer's instructions (Roche). The promoter or response elements including p21-promoter, gdf11-promoter, serum response element (SRE), MEF-binding element were fused upstream to the luciferase gene reporter construct. For normalizing the transfection efficiency, a GFP expression plasmid was cotransfected. Cells were allowed to express protein for 24 hours followed by addition of individual compounds or the vehicle (DMSO). 24 hours later the cells were harvested, and the luciferase assays were performed using the luciferase assay kit according to the manufacturer's instructions (Promega). To normalize the data from the luciferase assays, β-galactosidase activity from transfected cells was measured using a kit (Promega) as instructed by the manufacturer.

Chains of the proteins cited; added tags and fusions are not shown. Lines headed by an entry give the natural chain unless they say otherwise; changes in a name come on top.
UniProt O15379: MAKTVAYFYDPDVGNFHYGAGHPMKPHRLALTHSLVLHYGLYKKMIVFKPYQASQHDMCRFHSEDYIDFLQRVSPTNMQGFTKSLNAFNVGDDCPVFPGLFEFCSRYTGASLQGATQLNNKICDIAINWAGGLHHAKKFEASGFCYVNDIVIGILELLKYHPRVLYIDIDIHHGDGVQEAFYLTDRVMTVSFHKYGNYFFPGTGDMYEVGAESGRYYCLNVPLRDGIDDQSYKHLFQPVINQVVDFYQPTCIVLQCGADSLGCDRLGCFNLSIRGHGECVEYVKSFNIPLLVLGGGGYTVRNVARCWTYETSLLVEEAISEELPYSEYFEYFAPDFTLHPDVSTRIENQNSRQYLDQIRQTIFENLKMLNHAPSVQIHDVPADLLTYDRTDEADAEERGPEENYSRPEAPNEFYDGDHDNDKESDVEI

[2] = molecular target: T2, HDAC7 (Homo sapiens, UniProt Q8WUI4); assay: Nur77 reporter gene assay in HeLa cells; settings: 24 h, read-out: % of SAHA Response for HDAC7 at 10 μM (Nur77 reporter gene)
T2 construct: endogenous in cells; host or cells: HeLa
T2 sequence (Q8WUI4 1-952): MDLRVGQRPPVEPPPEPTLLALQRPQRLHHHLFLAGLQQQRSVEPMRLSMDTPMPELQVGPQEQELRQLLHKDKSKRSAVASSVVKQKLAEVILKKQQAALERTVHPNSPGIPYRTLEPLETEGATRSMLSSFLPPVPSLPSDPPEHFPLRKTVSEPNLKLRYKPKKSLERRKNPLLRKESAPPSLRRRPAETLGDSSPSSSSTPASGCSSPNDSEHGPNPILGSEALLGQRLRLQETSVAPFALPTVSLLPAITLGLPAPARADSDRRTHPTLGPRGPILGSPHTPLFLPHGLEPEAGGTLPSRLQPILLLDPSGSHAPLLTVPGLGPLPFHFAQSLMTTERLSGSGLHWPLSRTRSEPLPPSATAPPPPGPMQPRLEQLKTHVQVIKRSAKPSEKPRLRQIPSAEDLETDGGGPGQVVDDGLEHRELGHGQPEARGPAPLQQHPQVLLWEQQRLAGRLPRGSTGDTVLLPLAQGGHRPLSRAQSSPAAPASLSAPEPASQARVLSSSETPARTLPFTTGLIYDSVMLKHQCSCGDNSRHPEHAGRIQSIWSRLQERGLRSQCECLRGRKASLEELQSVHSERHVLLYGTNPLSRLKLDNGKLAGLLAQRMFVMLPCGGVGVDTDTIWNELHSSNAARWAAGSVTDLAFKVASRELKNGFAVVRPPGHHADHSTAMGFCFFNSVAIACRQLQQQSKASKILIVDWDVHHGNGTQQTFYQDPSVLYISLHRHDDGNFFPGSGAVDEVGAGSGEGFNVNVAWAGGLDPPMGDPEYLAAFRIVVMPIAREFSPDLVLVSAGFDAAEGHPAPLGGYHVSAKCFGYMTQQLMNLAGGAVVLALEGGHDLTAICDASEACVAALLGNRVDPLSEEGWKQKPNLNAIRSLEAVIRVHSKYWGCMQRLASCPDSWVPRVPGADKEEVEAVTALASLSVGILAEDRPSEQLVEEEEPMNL
Protocol: as §1

[3] = molecular target: T3, (Homo sapiens, UniProt Q9UBN7); assay: Cytoblot assay of acetylation of α-tubulin in A549 cells; settings: 24 hours
T3 construct: endogenous in cells; host or cells: A549
T3 sequence (Q9UBN7 1-1215): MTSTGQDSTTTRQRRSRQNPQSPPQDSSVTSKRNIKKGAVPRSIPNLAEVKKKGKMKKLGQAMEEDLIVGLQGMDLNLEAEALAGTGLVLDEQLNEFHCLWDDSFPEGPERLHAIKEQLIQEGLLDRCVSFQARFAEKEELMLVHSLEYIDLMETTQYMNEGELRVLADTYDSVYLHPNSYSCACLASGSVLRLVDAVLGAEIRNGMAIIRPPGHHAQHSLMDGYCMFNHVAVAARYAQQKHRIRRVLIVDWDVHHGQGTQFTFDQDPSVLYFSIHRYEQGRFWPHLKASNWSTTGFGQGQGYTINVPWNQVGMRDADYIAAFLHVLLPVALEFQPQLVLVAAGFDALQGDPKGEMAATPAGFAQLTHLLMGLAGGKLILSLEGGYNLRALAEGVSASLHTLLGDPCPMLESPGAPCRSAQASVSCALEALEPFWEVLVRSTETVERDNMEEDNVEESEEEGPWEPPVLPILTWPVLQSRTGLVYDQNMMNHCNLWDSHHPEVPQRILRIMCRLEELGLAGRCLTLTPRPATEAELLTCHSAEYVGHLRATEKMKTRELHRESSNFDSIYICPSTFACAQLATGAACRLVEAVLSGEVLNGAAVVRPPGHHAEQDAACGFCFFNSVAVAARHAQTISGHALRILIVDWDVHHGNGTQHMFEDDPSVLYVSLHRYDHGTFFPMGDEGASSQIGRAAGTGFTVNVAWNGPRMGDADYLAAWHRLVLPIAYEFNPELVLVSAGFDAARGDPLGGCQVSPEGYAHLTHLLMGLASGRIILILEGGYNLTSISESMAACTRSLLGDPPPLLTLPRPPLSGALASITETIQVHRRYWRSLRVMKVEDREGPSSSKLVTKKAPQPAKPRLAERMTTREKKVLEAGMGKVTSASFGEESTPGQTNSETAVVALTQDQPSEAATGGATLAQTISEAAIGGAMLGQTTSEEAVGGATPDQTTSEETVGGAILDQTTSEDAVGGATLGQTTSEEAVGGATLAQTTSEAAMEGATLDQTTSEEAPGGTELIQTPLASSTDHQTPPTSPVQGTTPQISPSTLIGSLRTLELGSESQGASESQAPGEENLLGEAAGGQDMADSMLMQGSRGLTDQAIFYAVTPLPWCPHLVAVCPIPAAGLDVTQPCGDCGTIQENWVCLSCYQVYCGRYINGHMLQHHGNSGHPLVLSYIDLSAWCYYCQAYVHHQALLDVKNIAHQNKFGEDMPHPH
Protocol: This assay is used to measure in vivo inhibition of HDAC6 in a cytoblot assay.
• 1. […] Compounds were added and incubated for 24 hours at 37° C. • 3.

O=C(C=C1c2ccccc2-c2ccccc21)NCCCCCC(=O)NO [Example 11, 6-(2-(9H-fluoren-9-ylidene)acetamido)-N-hydroxyhexanamide]
activation at 10 µM [1]: 81% | activation at 10 µM [2]: 90% | Fold of tubulin acetylation (HDAC7 at 10 μM) [3]: 3.141 Fold
